Values quoted from earlier work, collected in PMC6832895, “Evaluation of Cyclic Peptide Inhibitors of the Grb7 Breast Cancer Target: Small Change in Cargo Results in Large Change in Cellular Activity” (Molecules, 2019).

The chains behind the UniProt entries cited, without tags or fusion partners. Residues count along the entry.
UniProt Q14451, 431-527 limits assumed: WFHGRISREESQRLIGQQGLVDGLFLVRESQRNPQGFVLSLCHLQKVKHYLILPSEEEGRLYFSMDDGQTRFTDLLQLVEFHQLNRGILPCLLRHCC

Target: Grb7-SH2 domain (Homo sapiens, UniProt Q14451)
Settings: Table S1; 50 mM Na3PO4, 150 mM NaCl, 1 mM DTT (pH 7.4); ref [2] Gunzburg et al., Sci. Rep. 2016; cited from earlier work

NC(=O)CC1NC(=O)C(CC(=O)O)NC(=O)C(Cc2ccc(O)cc2)NC(=O)CNC(=O)C(CCC(=O)O)NC(=O)C(Cc2ccccc2)NC(=O)C2COCC=CCOCC(NC1=O)C(=O)NC(Cc1ccccc1)C(=O)N1CCCC1C(=O)NC(C(N)=O)CSCC(=O)N2 (stereo not shown)
Kd: 1500 nM
